The text below walks through data of patent US20210230248A1, “Multivalent pharmacophores for high avidity and overexpressed-target specific binding and uses thereof” (priority 2020, published 2021).

Protein sequences, listed by entry. Tags and fused reporters are not part of them. Residues count along the entry.
UniProt Q9NZQ7, 19-290: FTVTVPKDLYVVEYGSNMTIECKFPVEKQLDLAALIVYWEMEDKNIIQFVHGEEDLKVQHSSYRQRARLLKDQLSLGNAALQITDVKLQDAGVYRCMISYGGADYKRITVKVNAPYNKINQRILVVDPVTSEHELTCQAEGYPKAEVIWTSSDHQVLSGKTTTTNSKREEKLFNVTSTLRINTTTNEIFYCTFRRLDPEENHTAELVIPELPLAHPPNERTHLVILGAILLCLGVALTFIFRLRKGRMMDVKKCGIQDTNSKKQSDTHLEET

Read-outs that look alike come from different tables or passages of the source.

Test [1] addresses T1, PD-L2 (Homo sapiens, UniProt Q9BQ51).
T1 sequence (Q9BQ51 20-273): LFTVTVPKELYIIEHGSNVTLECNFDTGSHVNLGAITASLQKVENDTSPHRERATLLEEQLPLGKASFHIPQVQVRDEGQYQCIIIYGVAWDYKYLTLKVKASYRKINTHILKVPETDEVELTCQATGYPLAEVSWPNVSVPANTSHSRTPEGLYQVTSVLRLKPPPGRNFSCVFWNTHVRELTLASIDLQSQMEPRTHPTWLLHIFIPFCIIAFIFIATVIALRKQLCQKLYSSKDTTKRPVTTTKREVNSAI
The following applies: isothermal titration calorimetry; Cheng et al. 2013; read-out: Kd PD-1/PD-L2; cited from earlier work.

Test [2] concerns the target T2, PD-L1 (Homo sapiens, UniProt Q9NZQ7). To be noted: Surface Plasmon Resonance; Cheng et al. 2013; read-out: Kd PD-1/PD-L1; cited from earlier work.
Test [3] concerns the target T1, PD-L2. To be noted: Surface Plasmon Resonance; Cheng et al. 2013; read-out: Kd PD-1/PD-L2; cited from earlier work.
Test [4] deals with T2, PD-L1. The following applies: isothermal titration calorimetry; Cheng et al. 2013; read-out: Kd PD-1/PD-L1; cited from earlier work.
Test [5] relates to Human recombinant CD80. Put plainly: Binding to CD80 coated MSD plate. To be noted: 5 nM; plate coated at 40 nM. The procedure: Human recombinant PD-L1, PD-L2 and CD80 (Abcam) at the concentration of 40 nM were coated onto wells of 96-well MSD plate (small spot, 40 μL/well) overnight at 4° C., and then blocked with 3% MSD Blocking Buffer for 1 h. […] The plates were shaken for another 1 h at room temperature. After washing, SULFO-TAG anti-mouse IgG antibody was added into the plates. The plates were further incubated for 1 h and then washed and read after adding 1×MSD Read Buffer. SULFO-TAG anti-human IgG antibody was added into the plate of PD-L1 Fc chimera proteins. The wells without coating were used as background binding.

Regarding “PD-1: programmed cell death protein-1; its ectodomain is the ligand of the pharmacophores”, the Kd is 500 nM in test [1], roughly 8000 nM in test [2], roughly 2000 nM in test [3] and 1600 nM in test [4].

Turning to “PD-L1 Fc chimera: recombinant human PD-L1 Fc chimera protein (R&D Systems) [reference compound]”, the “binding to CD80 coated plate” value in test [5] is reported as “observed”.
